Binding of CDR-mutated scFvs to a peptide of the spike HR2 region

Binding partner: SARS-CoV-2 spike HR2 peptide, sequence PDVDLGDISGINAS.

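The starting antibody came from a phage panning campaign against this peptide. The library (AAYL49) carries one to three amino acid substitutions per variant, with no insertions or deletions. The assay is AlphaSeq: two haploid yeast populations carry antibody and antigen on their surface. The frequency of each diploid, read from paired DNA barcodes, reflects how well the two displayed proteins bind. The ratio of observed to expected reads was calibrated, replicate by replicate, on BCL2-family standards whose Kd was known from biolayer interferometry. Each pool was mated in three replicate cultures.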

The variants keep the light chain, the linker and the frameworks of Ab-14 (scFv order VH, a 15-residue (Gly4Ser)3 linker, VL).
VH: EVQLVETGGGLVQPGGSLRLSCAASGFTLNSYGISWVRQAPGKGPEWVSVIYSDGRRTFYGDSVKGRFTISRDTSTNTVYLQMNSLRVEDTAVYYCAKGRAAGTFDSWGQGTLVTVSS
VL: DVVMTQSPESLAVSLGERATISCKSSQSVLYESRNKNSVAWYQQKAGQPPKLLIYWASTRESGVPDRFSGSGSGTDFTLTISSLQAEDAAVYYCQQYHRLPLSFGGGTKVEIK

Positions count from residue 1 of the parent VH; A101V puts V in place of A. Every variant below is changed at G103 of the VH (sequential numbering). Numbers give log10(Kd / nM), so 0 is 1 nM and 3 is 1 µM. Smaller is tighter. Averages over replicates are reported, and they cover detected replicates only. An entry "n.d." has no value in the source: the pair was not observed among the diploids in that replicate. This suggests poor binding but is not conclusive. The list is sorted by this average, lowest first, undetected variants last. As a blank, each scFv also met three strains without target: over library AAYL49, 15% of these pairings were detected, typically at 4.06 and seldom below 2.83. For reference, the parent read 0.65 as the reference entry and 4.11 (one replicate of three) as a member of this library.

| changes | replicates, log10 nM | mean log10 Kd (nM) |
|---|---|---|
| A101V G103Y S107G | 0.77 0.91 0.81 | 0.83 |
| G103S F105C | 1.29 1.16 0.88 | 1.11 |
| G99E G103Q D106W | 1.64 1.62 2.10 | 1.79 |
| R100W A102P G103R | 2.86 n.d. n.d. | 2.86 |
| G33D R56A G103K | n.d. n.d. 3.39 | 3.39 |
| F27N R100N G103R | 3.23 3.01 4.11 | 3.45 |
| L29W Y52M G103Y | 3.47 n.d. n.d. | 3.47 |
| N30C S53Q G103W | n.d. 3.94 3.44 | 3.69 |
| T58Y A101V G103Y | 3.83 4.32 n.d. | 4.07 |
| Y52D T58K G103H | n.d. 4.08 n.d. | 4.08 |
| S35L F59M G103K | n.d. 2.93 5.54 | 4.23 |
| I51K S63R G103H | 4.63 4.11 n.d. | 4.37 |
| N30M G55M G103N | 3.67 4.65 4.95 | 4.42 |
| G33P S35F G103A | 4.65 3.72 5.00 | 4.46 |
| G55Y V64Q G103S | n.d. 4.53 n.d. | 4.53 |
| V50H V64I G103V | n.d. n.d. 4.65 | 4.65 |
| G33W A102R G103I | 5.19 4.06 4.75 | 4.67 |
| R56G G103C | n.d. 4.68 n.d. | 4.68 |
| L29W K65E G103S | n.d. 5.35 4.75 | 5.05 |
| S35P S53N G103S | 5.05 4.38 5.99 | 5.14 |
| L29P R56P G103P | 5.19 4.72 6.39 | 5.44 |
| Y32Q V64Y G103S | n.d. n.d. n.d. | n.d. |
| R56N A101D G103W | n.d. n.d. n.d. | n.d. |
| I51M D54V G103F | n.d. n.d. n.d. | n.d. |
| I51S G61T G103A | n.d. n.d. n.d. | n.d. |
| G99Y G103S S107G | n.d. n.d. n.d. | n.d. |
| I34K R100G G103M | n.d. n.d. n.d. | n.d. |
| N30P G99K G103E | n.d. n.d. n.d. | n.d. |
| Y60K V64E G103V | n.d. n.d. n.d. | n.d. |
| G26M V50H G103C | n.d. n.d. n.d. | n.d. |
| Y32I D62L G103N | n.d. n.d. n.d. | n.d. |
| G26S Y60H G103E | n.d. n.d. n.d. | n.d. |
| R100K G103A T104C | n.d. n.d. n.d. | n.d. |
| N30S D62A G103A | n.d. n.d. n.d. | n.d. |
| S53K R57G G103M | n.d. n.d. n.d. | n.d. |
| G33Q R56C G103M | n.d. n.d. n.d. | n.d. |
| Y32P G99V G103W | n.d. n.d. n.d. | n.d. |
| I51H R100H G103M | n.d. n.d. n.d. | n.d. |
| G33V G99I G103V | n.d. n.d. n.d. | n.d. |

Repeated from above, the 3 best binders with a signal in all replicates:

changes,"replicates, log10 nM",mean log10 Kd (nM)
A101V G103Y S107G,0.77 0.91 0.81,0.83
G103S F105C,1.29 1.16 0.88,1.11
G99E G103Q D106W,1.64 1.62 2.10,1.79

The measurements come from Engelhart et al. 2022 (doi:10.1038/s41597-022-01779-4) through the FLAb antibody collection.